Conditions: human, in vivo
Experimental: NRTI concentrations were measured by a validated method on ultra-performance liquid chromatography (ACQUITY, Waters) in plasma samples collected at study baseline. Briefly, 200 μL of plasma was subjected to solid phase extraction (MCX cartridge, Waters) and the elutants were dried under nitrogen stream before being re-constituted in 50 μL of water. The NRTI drugs were separated using a C18 BEH column (1.7 μm, 2.1 mm x 100 mm, Waters). For each of the four NRTIs, population PK models were determined using nonlinear mixed effects (NONMEM v.7.3) using the $PRIOR subroutine to stabilise the models and aid partition of inter-individual and residual variabilities. The impact of covariates on antiretroviral apparent oral clearance was evaluated. […] Model fit was assessed by statistical and graphical methods. […]
Continuous variables, including PK parameters and cognitive z-scores, were summarized using the median and the interquartile range (IQR); categorical variables were described using frequencies and percentages. Associations between NRTI PK parameters and cognitive z-scores were assessed using a series of rank regression models, one for each combination of cognitive domain/global score, NRTI and PK parameter (7x4x3 models). […]

Eta^2, eGFR vs AUC0-24: 0.136
Compound: Nc1nc(=O)n([C@@H]2CS[C@H](CO)O2)cc1F [FTC, emtricitabine]

From paper PMC8294567, “Associations between plasma nucleoside reverse transcriptase inhibitors concentrations and cognitive function in people with HIV” (PLoS ONE, 2021)
